Source: US20230220038A1, “BRI2 BRICHOS DOMAIN FOR DELIVERY OF PROTEINS INTO CNS NEURONS” (ALPHABETA AB, priority 2021, published 2023)

System: hCMEC/D3 monolayer
Assay: hCMEC/D3 monolayer permeability (in vitro human BBB model), western blot / fluorescence
Conditions: Table 3: 1 μM solution, 24 h incubation; percent of total amount added to the apical side
Description: For the preparation of the hCMEC/D3 cell monolayers, transwell ethylene terephthalate (PET) membrane inserts (24-well, clear, pore size 0.4 μm, CellQART, SABEU GmbH & Co. KG, Germany) were coated with rat tail type I collagen (150 μg/ml in 1× Dulbecco's Phosphate-buffered saline pH 7.4, 1×DPBS, Gibco, Thermo Fisher Scientific, Waltham, Mass.) for 2 h at 37° C. […] Media was changed every second day and the cell monolayer was established by day 6.
Experiments were conducted on culture day 6 by adding different BRICHOS protein constructs, or relevant controls to the apical side of the hCMEC/D3 monolayer. BRICHOS constructs used were rh proSP-C BRICHOS wt, rh proSP-C BRICHOS T187R, rh Bri2 BRICHOS wt monomers and oligomers, rh Bri2 BRICHOS R221E monomers, S-tag-Bri2 BRICHOS monomers and oligomers, mCherry-Bri2 BRICHOS monomers, NT-Bri2 BRICHOS monomers and oligomers and an unresolved mixture of different S-tag-Bri3 BRICHOS assembly states. […] Concentrations used were 1 μM, 0.5 μM, 0.25 μM, 0.1 μM or 0.05 μM; and incubation times were either 2 h or 24 h. […] After the incubation, medium on the apical and basolateral sides of the monolayer was removed and analyzed by Western blotting and the band intensities measured by ImageJ. For the western blot (see below) anti-Bri2 BRICHOS primary antibody (produced in goat and purified in house) in 1:1000 dilution, anti-proSP-C BRICHOS primary antibody (produced in goat and purified in house) at 1:2000 dilution, anti-S-tag primary antibody (S-tag protein HRP conjuc. Novagen, Merck, Germany) at 1:5000 dilution, anti-NT primary antibody (produced in rabbit and purified in house at 1:5000 dilution, anti-RFP primary antibody (produced in mouse, Thermo Fisher Scientific, Waltham, USA) at 1:1000 dilution and anti-human Apolipoprotein A-I primary antibody (produced in goat, Calbiochem, San Diego, Calif.) were used. For mCherry and mCherry-Bri2 BRICHOS monomers, fluorescence intensity of the apical and basolateral medium was recorded at λex 570 nm and λem 610 nm, after which the cells were fixed and analyzed by fluorescence microscopy to analyse the uptake of mCherry or mCherry-Bri2 BRICHOS into cells.
FITC fluorescence was measured at λex 492 nm and λem 518 nm. Insulin permeability was determined by western blot and an anti-Insulin monoclonal primary antibody (Sigma, St. Louis, Mo.) at 1:1000 dilution.
Spectra Multicolor Broad Range protein ladder was used (Thermo Fisher Scientific, Waltham, USA). For the monolayer permeability assessment, 4 μl of protein sample in cell culture media was loaded in the wells. For the cell uptake assessment, 7 μg of cell lysate was loaded.
The membranes were soaked in blocking buffer [5% nonfat dry milk (AppliChem, Germany) diluted in 1×PBS containing 0.1% Tween-20 (Sigma, St. Louis, Mo.) (1×PBS-T)] for 30 min at room temperature and incubated with the primary antibody overnight at 4° C. Membranes were washed 3 times with 0.5% nonfat dry milk in 1×TPBS-T and incubated with horseradish peroxidase conjugated secondary antibody (Goat Anti-Rabbit IgG from abcam, UK in 1:3000 dilution; Rabbit Anti-Goat IgG from Invitrogen, Waltham, Mass. at 1:10000 dilution; Rabbit Anti-Mouse IgG from Invitrogen, Waltham, Ma at 1:10000 dilution; Goat Anti-Human IgG Fc from Invitrogen, Waltham, Ma in 1:1000 dilution) for 1 h at room temperature. Membranes were washed again as above, and also twice with 1×PBS.

Substance | Concentration % (Mean ± SD) Apical [%] | Concentration % (Mean ± SD) Basolateral [%] | Concentration % (Mean ± SD) Monolayer [%]
Human insulin [reference compound] | 85.1 | 13.4 | 1.6
fluorescein isothiocyanate dextran [FITC-dextran, reference compound] | 98.8 ± 1.2 | 1.2 ± 1.2 | 0.0 ± 0.0
